{"source": "patent US4882359A", "about": "“Azacycloalkane derivatives, absorption promoters containing the derivatives as the effective ingredient and external preparations containing the absorption promoters” (priority 1986, dated 1989)", "assay": "Skin penetration of pindolol from test solution, diffusion cell method", "assay_type": "in vitro ADME, female hairless mice", "settings": "3.0 wt.% test compound, pindolol 0.4 wt.% in ethanol/water"}
{"substance": "Pyrrolidone carboxylic acid [Pyrolidone carbonic acid]", "values": [{"measurement": "Cumulative amount of pindolol permeated, 24 hrs later", "setting": "24 hrs", "value": "1.0 ± 0.0", "unit": "µM"}, {"measurement": "Cumulative amount of pindolol permeated, 48 hrs later", "setting": "48 hrs", "value": "1.9 ± 0.1", "unit": "µM"}]}
